Source: paper PMC13070491, “Single-nucleus transcriptomics, pharmacokinetics, and pharmacodynamics of CDK4/6 and mTOR inhibition in a Phase 0/1 trial of recurrent high-grade glioma” (Neuro-Oncology, 2025)

Tested on: GB126, GB239 and GB86 patient-derived cell lines
Test: In vitro single-cell RNA sequencing, analyses across the cell lines (pseudobulk differential gene expression, GSEA, non-cycling cells)
Type: cell-based, human
Description: Patient-derived glioma stem cell lines (GSCs; GB126, GB86, and GB239) were established from resected GBM tumor tissue. Cell lines were genetically profiled for mutations and copy number aberrations using the IvySeq custom gene panel. […] GB239 was derived from a tumor sample included in this Phase 0 trial (tumor sample: 100-0039). All human GSCs were cultured as described previously.[12]
Following the fifth day of drug exposure, cells were harvested, cryopreserved to be processed at a later point, or immediately processed for single-cell RNA sequencing (10x Genomics, 3’ version 3). The single-cell RNA sequencing data were then processed via cellranger count and Seurat. Briefly, cells were filtered out based on the following criteria: minimum number of genes detected >500 and <10 000 with a maximum percentage of mitochondrial genes set to 10%. Statistical assessment was made between the malignant proportions of each cell state using a 2-sided paired t-test.
Descriptive statistics of the clinical data are included in Table 1. Comparisons between groups were conducted using a 2-sided or paired 2-sided t-test, where indicated. P < .05 was considered significant. Multiple hypothesis test corrections (ie, false discovery rate correction) were applied for snRNAseq pseudobulk differential expression analysis.

CN(C)C(=O)c1cc2cnc(Nc3ccc(N4CCNCC4)cn3)nc2n1C1CCCC1 [ribo]
log2FoldChange (feature AC002074.2, ribociclib versus control (DMSO)): 1.238
log2FoldChange (feature AC004828.2, ribociclib versus control (DMSO)): 1.204
log2FoldChange (feature AC005019.2, ribociclib versus control (DMSO)): 1.133
log2FoldChange (feature AC005050.3, ribociclib versus control (DMSO)): 1.098
log2FoldChange (feature AC005209.1, ribociclib versus control (DMSO)): 1.102
log2FoldChange (feature AC005224.2, ribociclib versus control (DMSO)): 1.098
log2FoldChange (feature AC005692.1, ribociclib versus control (DMSO)): 1.127
log2FoldChange (feature AC005699.1, ribociclib versus control (DMSO)): 1.02
log2FoldChange (feature AC005899.6, ribociclib versus control (DMSO)): 1.179
log2FoldChange (feature AC005908.3, ribociclib versus control (DMSO)): 1.126
log2FoldChange (feature AC005999.2, ribociclib versus control (DMSO)): 1.296
log2FoldChange (feature AC006355.2, ribociclib versus control (DMSO)): 1.109
log2FoldChange (feature AC007009.1, ribociclib versus control (DMSO)): 1.146
log2FoldChange (feature AC007128.2, ribociclib versus control (DMSO)): 1.193
log2FoldChange (feature AC007422.1, ribociclib versus control (DMSO)): 1.318
log2FoldChange (feature AC007938.3, ribociclib versus control (DMSO)): 1.227
log2FoldChange (feature AC008056.1, ribociclib versus control (DMSO)): 1.084
log2FoldChange (feature AC008056.3, ribociclib versus control (DMSO)): 1.241
log2FoldChange (feature AC008067.1, ribociclib versus control (DMSO)): 1.146
log2FoldChange (feature AC008121.2, ribociclib versus control (DMSO)): 1.023
log2FoldChange (feature AC008592.2, ribociclib versus control (DMSO)): 1.196
log2FoldChange (feature AC008825.1, ribociclib versus control (DMSO)): 1.249
log2FoldChange (feature AC008883.2, ribociclib versus control (DMSO)): 1.029
log2FoldChange (feature AC009063.2, ribociclib versus control (DMSO)): 1.028
log2FoldChange (feature AC009495.3, ribociclib versus control (DMSO)): 1.129
log2FoldChange (feature AC010273.3, ribociclib versus control (DMSO)): 1.0452
log2FoldChange (feature AC010280.1, ribociclib versus control (DMSO)): 1.031
log2FoldChange (feature AC010547.3, ribociclib versus control (DMSO)): 1.322
log2FoldChange (feature AC012511.1, ribociclib versus control (DMSO)): 1.1953
log2FoldChange (feature AC012613.1, ribociclib versus control (DMSO)): 1.163
log2FoldChange (feature AC015983.2, ribociclib versus control (DMSO)): 1.126
log2FoldChange (feature AC016716.2, ribociclib versus control (DMSO)): 1.19
log2FoldChange (feature AC016907.2, ribociclib versus control (DMSO)): 1.038
log2FoldChange (feature AC022469.1, ribociclib versus control (DMSO)): 1.159
log2FoldChange (feature AC022509.5, ribociclib versus control (DMSO)): 1.028
log2FoldChange (feature AC024145.1, ribociclib versus control (DMSO)): 1.045
log2FoldChange (feature AC025475.1, ribociclib versus control (DMSO)): 1.104
log2FoldChange (feature AC025917.1, ribociclib versus control (DMSO)): 1.27
log2FoldChange (feature AC026316.5, ribociclib versus control (DMSO)): 1.134
log2FoldChange (feature AC027013.1, ribociclib versus control (DMSO)): 1.25
log2FoldChange (feature AC060834.2, ribociclib versus control (DMSO)): 1.022
log2FoldChange (feature AC064805.2, ribociclib versus control (DMSO)): 1.098
log2FoldChange (feature AC068205.1, ribociclib versus control (DMSO)): 1.1311
log2FoldChange (feature AC068254.1, ribociclib versus control (DMSO)): 1.164
log2FoldChange (feature AC068473.4, ribociclib versus control (DMSO)): 1.0291
log2FoldChange (feature AC068506.1, ribociclib versus control (DMSO)): 1.25
log2FoldChange (feature AC068989.1, ribociclib versus control (DMSO)): 1.227
log2FoldChange (feature AC073941.1, ribociclib versus control (DMSO)): 1.2518
log2FoldChange (feature AC078883.2, ribociclib versus control (DMSO)): 1.078
log2FoldChange (feature AC079177.1, ribociclib versus control (DMSO)): 1.267
log2FoldChange (feature AC087235.1, ribociclib versus control (DMSO)): 1.04
log2FoldChange (feature AC087627.1, ribociclib versus control (DMSO)): 1.103
log2FoldChange (feature AC087857.1, ribociclib versus control (DMSO)): 1.335
log2FoldChange (feature AC090138.1, ribociclib versus control (DMSO)): 1.283
log2FoldChange (feature AC090206.1, ribociclib versus control (DMSO)): 1.087
log2FoldChange (feature AC090692.3, ribociclib versus control (DMSO)): 1.0991
log2FoldChange (feature AC091563.1, ribociclib versus control (DMSO)): 1.024
log2FoldChange (feature AC091849.2, ribociclib versus control (DMSO)): 1.277
log2FoldChange (feature AC091885.2, ribociclib versus control (DMSO)): 1.158
log2FoldChange (feature AC091917.3, ribociclib versus control (DMSO)): 1.185
log2FoldChange (feature AC091932.1, ribociclib versus control (DMSO)): 1.201
log2FoldChange (feature AC092118.1, ribociclib versus control (DMSO)): 1.117
log2FoldChange (feature AC092153.1, ribociclib versus control (DMSO)): 1.043
log2FoldChange (feature AC092159.1, ribociclib versus control (DMSO)): 1.13
log2FoldChange (feature AC092691.1, ribociclib versus control (DMSO)): 1.137
log2FoldChange (feature AC092834.1, ribociclib versus control (DMSO)): 1.0911
log2FoldChange (feature AC093206.1, ribociclib versus control (DMSO)): 1.177
log2FoldChange (feature AC093240.1, ribociclib versus control (DMSO)): 1.235
log2FoldChange (feature AC093334.1, ribociclib versus control (DMSO)): 1.106
log2FoldChange (feature AC093675.1, ribociclib versus control (DMSO)): 1.019
log2FoldChange (feature AC096576.6, ribociclib versus control (DMSO)): 1.284
log2FoldChange (feature AC096719.1, ribociclib versus control (DMSO)): 1.09
log2FoldChange (feature AC099567.1, ribociclib versus control (DMSO)): 1.2019
log2FoldChange (feature AC099791.3, ribociclib versus control (DMSO)): 1.273
log2FoldChange (feature AC103740.2, ribociclib versus control (DMSO)): 1.2
log2FoldChange (feature AC104009.1, ribociclib versus control (DMSO)): 1.092
log2FoldChange (feature AC104072.1, ribociclib versus control (DMSO)): 1.249
log2FoldChange (feature AC104335.2, ribociclib versus control (DMSO)): 1.08
log2FoldChange (feature AC104623.1, ribociclib versus control (DMSO)): 1.262
log2FoldChange (feature AC104653.2, ribociclib versus control (DMSO)): 1.259
log2FoldChange (feature AC104827.1, ribociclib versus control (DMSO)): 1.029
log2FoldChange (feature AC105230.1, ribociclib versus control (DMSO)): 1.058
log2FoldChange (feature AC108472.1, ribociclib versus control (DMSO)): 1.115
log2FoldChange (feature AC124312.5, ribociclib versus control (DMSO)): 1.047
log2FoldChange (feature AC138356.1, ribociclib versus control (DMSO)): 1.147
log2FoldChange (feature AC139722.1, ribociclib versus control (DMSO)): 1.183
log2FoldChange (feature AC141930.1, ribociclib versus control (DMSO)): 1.024
log2FoldChange (feature AC144831.1, ribociclib versus control (DMSO)): 1.255
log2FoldChange (feature AC147651.3, ribociclib versus control (DMSO)): 1.272
log2FoldChange (feature AC244517.12, ribociclib versus control (DMSO)): 1.086
log2FoldChange (feature AC244517.7, ribociclib versus control (DMSO)): 1.287
log2FoldChange (feature ACE2, ribociclib versus control (DMSO)): 1.152
log2FoldChange (feature ACOXL-AS1, ribociclib versus control (DMSO)): 1.043
log2FoldChange (feature ADAM21, ribociclib versus control (DMSO)): 1.04
log2FoldChange (feature ADIRF, ribociclib versus control (DMSO)): 1.124
log2FoldChange (feature ADRA2A, ribociclib versus control (DMSO)): 1.1825
log2FoldChange (feature AKR1B10, ribociclib versus control (DMSO)): 1.062
log2FoldChange (feature AKR1C1, ribociclib versus control (DMSO)): 1.264
log2FoldChange (feature AL022318.5, ribociclib versus control (DMSO)): 1.047
